Measurements taken from patent US20130157953A1, “TREATMENT OF CARDIAC CONDITIONS” (Zealand Pharma A/S, priority 2010, published 2013).

The chains behind the UniProt entries cited, without tags or fusion partners. Where a name states a change or a piece, a line headed by the entry shows the natural chain unless it says otherwise.
UniProt P43220: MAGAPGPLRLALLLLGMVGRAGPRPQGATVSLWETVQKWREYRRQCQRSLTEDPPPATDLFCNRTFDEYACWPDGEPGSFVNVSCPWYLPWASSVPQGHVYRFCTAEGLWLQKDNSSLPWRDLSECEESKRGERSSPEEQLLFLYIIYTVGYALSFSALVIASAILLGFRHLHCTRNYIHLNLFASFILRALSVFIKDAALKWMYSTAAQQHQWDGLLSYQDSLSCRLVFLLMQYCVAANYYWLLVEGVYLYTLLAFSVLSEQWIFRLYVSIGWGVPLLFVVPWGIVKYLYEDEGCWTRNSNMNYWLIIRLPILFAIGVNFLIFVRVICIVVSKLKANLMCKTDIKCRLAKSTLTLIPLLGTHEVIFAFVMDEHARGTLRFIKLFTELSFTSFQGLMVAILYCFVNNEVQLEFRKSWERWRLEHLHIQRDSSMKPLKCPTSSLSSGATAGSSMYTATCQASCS

Molecular target: human glucagon-like peptide 1 receptor (GLP-1R) (human, UniProt P43220 24-463)
Experiment: cell-based or functional assay

B1: Compound 215 (peptide)
peptide: HAQGTFTSDYSKYLDSKAAHDFVEWLLSA
modifications: Aib at 2; K(Hexadecanoyl-[3-Aminopropanoyl]) at 17; C-terminal amide
EC50 (nM) GLP-1R; cAMP content, HEK293 cells expressing human GLP-1R: 0.23 nM
